Assay results as given in patent US20140378529A1, “COLLATERAL GENE INACTIVATION BIOMARKERS AND TARGETS FOR CANCER THERAPY” (Board Regents, The University of Texas System, priority 2011, published 2014).

Test system: ENO1-null D423-MG cells
Assay: Relative growth with receptor tyrosine kinase inhibitors or rapamycin
Format: cell-based, human
Conditions: combination of sorafenib, lapatinib and PHA665752

CNC(=O)c1cc(Oc2ccc(NC(=O)Nc3ccc(Cl)c(C(F)(F)F)c3)cc2)ccn1 [sorafenib]
sensitivity of ENO1-null D423-MG cells versus ENO1 WT GBM cell lines: no more sensitive
